Literature values as cited in US7498300B2, “CRFR1 selective ligands” (The Salk Institute for Biological Studies, priority 2001, dated 2009).

Biological target: T1, CRFR1 (Rattus norvegicus, UniProt P35353)
T1 sequence (P35353 24-415): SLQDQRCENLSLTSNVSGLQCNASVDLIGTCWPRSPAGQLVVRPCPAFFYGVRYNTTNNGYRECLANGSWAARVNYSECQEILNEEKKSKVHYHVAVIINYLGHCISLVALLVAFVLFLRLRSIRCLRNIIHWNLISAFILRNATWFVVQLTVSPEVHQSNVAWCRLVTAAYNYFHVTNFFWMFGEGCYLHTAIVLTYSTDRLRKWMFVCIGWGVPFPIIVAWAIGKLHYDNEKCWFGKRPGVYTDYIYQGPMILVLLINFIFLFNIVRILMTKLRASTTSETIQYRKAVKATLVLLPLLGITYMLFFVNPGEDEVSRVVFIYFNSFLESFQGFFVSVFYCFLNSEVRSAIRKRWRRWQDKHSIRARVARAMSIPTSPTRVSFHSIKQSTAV
Settings: Ruhmann et al., P.N.A.S. 95, 15264-15269 (1998); cited from earlier work

In the case of [D-Phe^11, His^12]-sauvagine(11-40), the “competitive antagonism for CRFR1 relative to the then best antagonist” value is listed as “about 30%”.
